Measurements as given in ChEMBL document CHEMBL3400112, “Design, syntheses, and pharmacological characterization of 17-cyclopropylmethyl-3,14β-dihydroxy-4,5α-epoxy-6α-(isoquinoline-3'-carboxamido)morphinan analogues as opioid receptor ligands” (Bioorg Med Chem, 2015).

Legend:
[1] = organism: Mus musculus; assay: Selectivity ratio of Ki for mouse DOR to Ki for mouse MOR
[2] = organism: Mus musculus; assay: Selectivity ratio of Ki for mouse KOR to Ki for mouse MOR

SMILES	Ratio Ki [1]	Ratio Ki [2]
O=C(N[C@H]1CC[C@@]2(O)[C@H]3Cc4ccc(O)c5c4[C@@]2(CCN3CC2CC2)[C@H]1O5)c1ncc2ccccc2c1O	8.9	73
O=C(N[C@H]1CC[C@@]2(O)[C@H]3Cc4ccc(O)c5c4[C@@]2(CCN3CC2CC2)[C@H]1O5)c1cc2ccccc2c(Cl)n1	8.6	63
